From patent US8367714B2, “Cannabinoid receptor targeted agent” (Vanderbilt University, priority 2007, dated 2013)

By UniProt entry, the sequences of proteins in these tests, tags left out.
UniProt P47936, whole entry: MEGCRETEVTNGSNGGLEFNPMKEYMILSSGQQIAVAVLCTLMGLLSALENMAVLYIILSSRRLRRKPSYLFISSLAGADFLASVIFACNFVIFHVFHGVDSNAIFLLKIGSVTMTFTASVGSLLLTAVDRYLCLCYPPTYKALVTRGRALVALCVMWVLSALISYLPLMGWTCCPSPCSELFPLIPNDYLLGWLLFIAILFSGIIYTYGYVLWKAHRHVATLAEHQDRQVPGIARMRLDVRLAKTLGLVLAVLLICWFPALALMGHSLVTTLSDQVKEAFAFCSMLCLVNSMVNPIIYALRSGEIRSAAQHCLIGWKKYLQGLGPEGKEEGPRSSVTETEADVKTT

Biological target: mouse CB2 receptors (Mus musculus, UniProt P47936)
Test: Displacement of [3H]-SR144528 binding to membrane fractions from DBT cells stably expressing mouse CB2 receptors
Conditions: displacement of [3H]-SR144528, membranes of DBT cells expressing mouse CB2
Protocol: One NIR dye labeled conjugable SR144528 (NIRmbc94 or SR-NIR) was tested for its ability to displace the binding of [^3H]-SR144528 to membrane fractions from DBT cells stably expressing mouse CB2 receptors.

Molecule `Cc1cc(-c2cc(C(=O)NC3C4(C)CCC(C4)C3(C)C)nn2Cc2ccc(CNCCCCCCN)cc2)ccc1Cl` (stereo not shown) has a Ki of 15 nM.
